Measured values: publication PMC11369174, “Proteome-scale characterisation of motif-based interactome rewiring by disease mutations” (Molecular Systems Biology, 2024)

Test system: KPNA4 ARM
Test: GenVar_HD2 ProP-PD phage selection, KPNA4 ARM
Type: binding, human
Conditions: bait-prey protein level, bait_accession O00629
Protocol: Phage display screens were performed according to previous reports (Benz et al, [2022]; Ali et al, [2020]) and for four consecutive selection rounds with five to six replicates per bait protein domain against the […] library.
On the first day, both bait (15 µg in 100 µL PBS) and control protein domains (GST and MBP; 10 µg in 100 µL PBS) were immobilised on a 96-well MaxiSorb plate (Nunc) overnight in the cold room while shaking. Additionally, a 10 mL culture of Omnimax E. coli bacteria supplemented with 10 µg/mL tetracycline was incubated overnight at 37 °C at 200 rpm.
First, protein solutions were removed from both control and bait protein domain plates and the wells were blocked with 0.5% BSA in PBS (200 µL/well) for 1 h in the cold room while shaking. After that, three Omnimax E. coli cultures were started supplemented with either 30 µg/mL kanamycin, 100 µg/mL carbenicillin and 10 µg/mL tetracycline and incubated at 37 °C and 200 rpm. The two first cultures served as a means to check for helper phage contamination (kanamycin) and phages with library phagemid contamination (carbenicillin) of the culture used for elution of the phages during selections. The tetracycline Omnimax E. coli culture was grown until OD at 600 nm reached 0.6–0.8. […]

## O43526
  max_promiscuity: 6
  max_specificity: 0.8684
